Measured values from patent US7341730B1, “Inhibitors of angiogenesis and tumor growth” (University of Southern California, priority 1998, dated 2008).

How the values were obtained:
KS Y-1 cells = assay: KS Y-1 cell proliferation assay (MTT); type: cell-based; conditions: concentration not given
Procedure: (§1) To determine if Saposin B polypeptides had anti-angiogenic activity, a series of overlapping polypeptides were synthesized and tested in the KS Y-1 cell proliferation assay. The overlapping polypeptides are SEQ ID NOs:13 though 43. Cell Proliferation assays in either KS cells or fibroblast. Cells were plated in 48 well plates at equal numbers in appropriate culture medium. Cells were treated with the test compounds at various concentrations on day one, and on day 3. MTT was done on day 5. KS cells were used to represent the activated endothelial cells, while fibroblast cells represent the control cells. The results are remarkable for the lack of toxicity to the fibroblast relative to the activated endothelial cells/KS cells.

KS-SLK or KS Y-1 tumors = assay: KS tumor growth in nude mice; type: in vivo; conditions: 50 mg/kg subcutaneously daily from the day after implantation; FIG. 6
Procedure: FIG. 6: Effect of pentapeptide DVCQD (SEQ ID NO:28) on the growth of established KS Y-1 tumors in mice. Mice were implanted with the tumor on day one. Treatment with the peptide was started on the following day at a dose of 50 mg/kg subcutaneously daily. […] The arrow marks initiation of daily subcutaneous dosing.
In order to determine the anti-angiogenic activity of the recombinant Saposin B, tumor cells were implanted in immuno-deficient mice and treated with either Saposin B or buffer alone.
Nude mice were injected with 2×10^6 KS-SLK or KS Y-1 cells subcutaneously in a total volume of 100 μL. After one week of tumor development, the mice were injected subcutaneously daily with either PBS or Saposin B at concentrations of 1, 10 and 20 mg/kg for a total protein concentration of […]. The tumor size was measured three times a week. The results represent the median of 4 mice in each group.
To determine whether this anti-tumor effect was reproducible with different classes of syngeneic-tumors, C57BL/6 mice were implanted with Lewis lung carcinoma, melanoma (B16), and T-cell lymphoma (EL-4) cell lines. KS Y-1 was implanted into nude mice for a positive control. The day following tumor implantation, 2.5 mg/kg of Saposin B was administered intraperitoneally. Tumor size was measured three times a week for two weeks at which time the mice were sacrificed for analysis. […]

[1] = tested on: endothelial cells (HUVEC); assay: Growth inhibition of endothelial cells; type: cell-based
Procedure: Typically, in an anti-proliferation assay, the suppression of growth in the presence of the compound to be tested is measured. For example, the above cells are incubated with the polypeptides of this invention for a suitable time and the decrease in the growth rate relative to a negative control, i.e., cells of the same cell line which have been incubated in media alone, is measured. Growth of the cell culture can be measured by any method acceptable to one of skill, including but not limited to, 3H-thymidine uptake, cell counting and tetrazolium dye uptake.
By SDS-PAGE, the bacterial product was smaller than the eukaryotic protein. Because prokaryotically expressed proteins are not glycosylated, the difference in molecular weights probably represents the presence of carbohydrate in the eukaryotic protein. Recombinant proteins were then tested in KS, endothelial and control cell lines. Activity was found only in KS cell lines and endothelial cells.

fibroblast cells (T1) = assay: Fibroblast proliferation assay (MTT), control cells; type: cell-based; conditions: concentration not printed
Procedure: as §1

`CC(C)[C@H](NC(=O)[C@@H](N)CC(=O)O)C(=O)N[C@@H](CS)C(=O)N[C@@H](CCC(N)=O)C(=O)N[C@@H](CC(=O)O)C(=O)O` [SEQ ID NO:28, DVCQD] was tested, and the “Cell Proliferation Activity (% of control), KS Y-1” value (KS Y-1 cells; KS Y-1, first value column) was 30 % of control, the “Cell Proliferation Activity (% of control), KS Y-1” value (KS Y-1 cells; KS Y-1) was 10 % of control and the “growth of KS Y-1 tumors in mice (tumor volumes)” value (KS-SLK or KS Y-1 tumors) was “significantly smaller”. For the same compound, the “growth inhibition / activity against endothelial cells” value [1] was “Only endothelial cells show dose dependent growth inhibition”, the “Cell Proliferation Activity (% of control), T1” value (fibroblast cells (T1); T1, first value column) was 91 % of control and the “Cell Proliferation Activity (% of control), T1” value (fibroblast cells (T1); T1, second value column) was 87 % of control.
